Assay results published in article PMC8596843, “Platinum Cyclooctadiene Complexes with Activity against Gram‐positive Bacteria” (Chemmedchem, 2021).

Tested on: human red blood cells
Assay: Haemolysis assay
Assay type: cell-based
Conditions: concentration inducing 50 % haemolysis
Protocol: As part of the CO‐ADD screening, all compounds that show any activity against a microbial strain are evaluated for their cytotoxicity against human embryonic kidney cells (HEK‐293) and for haemolysis against human red blood cells. None of the compounds tested for cytotoxicity (Pt1‐9 and Pd1) caused any significant cell death up to concentrations of 100 μM. […] We have also observed higher IC50 values for the methylated complexes Pt3 and Pt4 against HeLa cells in previous work.[16]
The resultant mid-log phase cultures were diluted
Gram-negative and Gram-positive bacteria, respectively.
final concentration range of 0.8 – 100 µM.
inhibitors as positive control.
Tamoxifen (Sigma T5648) was used
as internal control on each plate.
in a Neubauer haemocytometer.
incubated for 1 h at 37 °C, without shaking.
HC10 and HC50 (concentration at which 10%
for top, bottom and slope using Prism 8. […]

SMILES: CC[C@H](C)[C@H](NC(=O)CN)C(=O)NCC(=O)N[C@@H](C)C(=O)N[C@H](C(=O)N[C@@H](CC(C)C)C(=O)N[C@@H](CCCCN)C(=O)N[C@H](C(=O)N[C@@H](CC(C)C)C(=O)N[C@H](C(=O)N[C@H](C(=O)NCC(=O)N[C@@H](CC(C)C)C(=O)N1CCC[C@H]1C(=O)N[C@@H](C)C(=O)N[C@@H](CC(C)C)C(=O)N[C@H](C(=O)N[C@@H](CO)C(=O)N[C@@H](Cc1c[nH]c2ccccc12)C(=O)N[C@H](C(=O)N[C@@H](CCCCN)C(=O)N[C@@H](CCCNC(=N)N)C(=O)N[C@@H](CCCCN)C(=O)N[C@@H](CCCNC(=N)N)C(=O)N[C@@H](CCC(N)=O)C(=O)N[C@@H](CCC(N)=O)C(N)=O)[C@@H](C)CC)[C@@H](C)CC)[C@@H](C)O)[C@@H](C)O)C(C)C)C(C)C [Melittin, reference compound]
- Haemolysis HC50: 1.82 µM
